{
  "sequences": {"note": "Amino acid sequences for entries named in this document (tags omitted). A change or cut given only in a name is not applied to a line headed by its entry.", "UniProt P41145": "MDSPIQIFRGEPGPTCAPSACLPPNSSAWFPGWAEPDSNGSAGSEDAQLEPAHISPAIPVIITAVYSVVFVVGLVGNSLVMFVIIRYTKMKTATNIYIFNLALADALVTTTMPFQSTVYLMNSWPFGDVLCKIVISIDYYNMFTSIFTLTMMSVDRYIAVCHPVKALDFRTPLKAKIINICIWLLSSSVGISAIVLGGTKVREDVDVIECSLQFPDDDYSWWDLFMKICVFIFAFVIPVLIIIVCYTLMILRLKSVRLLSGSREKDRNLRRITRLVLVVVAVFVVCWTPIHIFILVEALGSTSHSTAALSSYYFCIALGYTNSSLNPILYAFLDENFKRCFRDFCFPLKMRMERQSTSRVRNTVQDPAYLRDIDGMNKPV", "UniProt P41144": "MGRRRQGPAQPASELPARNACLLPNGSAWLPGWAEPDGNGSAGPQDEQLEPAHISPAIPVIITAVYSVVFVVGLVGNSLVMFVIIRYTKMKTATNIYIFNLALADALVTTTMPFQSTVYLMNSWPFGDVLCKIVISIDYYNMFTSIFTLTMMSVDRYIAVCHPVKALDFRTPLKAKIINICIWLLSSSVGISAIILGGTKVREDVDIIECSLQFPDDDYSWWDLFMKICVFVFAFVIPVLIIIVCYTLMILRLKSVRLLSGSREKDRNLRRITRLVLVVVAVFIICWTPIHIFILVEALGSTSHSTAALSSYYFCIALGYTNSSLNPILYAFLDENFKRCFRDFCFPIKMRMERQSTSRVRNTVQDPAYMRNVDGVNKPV", "UniProt P97266, whole entry, looked up": "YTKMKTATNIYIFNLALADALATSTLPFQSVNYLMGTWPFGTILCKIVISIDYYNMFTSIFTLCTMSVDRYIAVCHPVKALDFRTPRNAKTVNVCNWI"},
  "source": "ChEMBL document CHEMBL4007424",
  "about": "“Design and Synthesis of Enantiomerically Pure Decahydroquinoxalines as Potent and Selective κ-Opioid Receptor Agonists with Anti-Inflammatory Activity in Vivo” (J Med Chem, 2017)",
  "key": {"[1]": {"biological_target": "Kappa-type opioid receptor (Homo sapiens, UniProt P41145)", "test": "Agonist activity at recombinant human kappa-type opioid receptor expressed in HEK293 cells after 30 mins by [35S]GTPgammaS binding assay"}, "[2]": {"biological_target": "Kappa-type opioid receptor (Cavia porcellus, UniProt P41144)", "test": "Displacement of [3H]U-69,593 from kappa-type opioid receptor in guinea pig brain membranes after 120 mins by solid scintillation counting"}, "Mu-type opioid receptor": {"biological_target": "Mu-type opioid receptor (Cavia porcellus, UniProt P97266)", "test": "Displacement of [3H]DAMGO from mu-type opioid receptor in guinea pig brain membranes after 120 mins by solid scintillation counting"}},
  "data": [
    {"molecule": "O=C(Cc1ccc(Cl)c(Cl)c1)N1CCN[C@H]2CCC[C@H](N3CCCC3)[C@H]21", "values": [
      {"measurement": "EC50", "setting": "[1]", "result": 3.7, "unit": "nM"},
      {"measurement": "Ki", "setting": "[2]", "result": 0.35, "unit": "nM"},
      {"measurement": "Ki", "setting": "Mu-type opioid receptor", "result": 217, "unit": "nM"}
    ]}
  ]
}
